Assay results taken from patent publication US6610657B1, “Alkyl peptide amides and applications” (Promega Corporation, priority 1996, dated 2003).

Target: PKA of bovine sperm (cAMP-dependent protein kinase A activity in sperm lysate) (bovine)
Test: cell-based or functional assay

In the case of “PKI (unmodified, non-stearated cAMP-dependent protein kinase inhibitor peptide)”, the PKA activity with PKI (about 50 µM) added to the PKA assay was 100%.
